From patent publication US11981617B2, “Ketamine pamoate and use thereof” (Alar Pharmaceuticals Inc., priority 2019, dated 2024)

System: female Sprague Dawley (SD) rats
Experiment: 3-month repeat-dose toxicology study
Settings: high dose subchronic treatment for 12 weeks

R, S-ketamine pamoate [KEP]
pathological bladder and brain changes: did not cause pathological bladder and brain changes
